From article PMC9328650 (British Journal of Pharmacology, 2021)

Tested on: integrin αIIbβ3 activation on human platelets
Details: 0.1–5 μM; CRP-XL 0.25 μg·ml^−1

COc1cc(C(=O)NS(=O)(=O)c2ccccc2C)ccc1Cc1cn(C)c2ccc(NC(=O)OC3CCCC3)cc12 [zafirlukast]
Effect on fibrinogen binding: showed a trend towards inhibition but did not reach significance
